Here are results for three substances from patent publication US6656930B2, “Aralkyl diazabicycloalkane derivatives for CNS disorders” (The United States of America as represented by the …, priority 1992, dated 2003).

Sequences of proteins named here, by UniProt entry; tags and fusion partners are left off.
UniProt Q60492, whole entry: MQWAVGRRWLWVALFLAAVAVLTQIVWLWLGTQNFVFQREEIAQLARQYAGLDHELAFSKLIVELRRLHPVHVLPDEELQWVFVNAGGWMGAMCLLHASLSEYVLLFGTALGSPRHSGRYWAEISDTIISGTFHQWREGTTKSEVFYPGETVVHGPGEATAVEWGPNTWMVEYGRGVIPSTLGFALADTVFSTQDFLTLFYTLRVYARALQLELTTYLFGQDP

The target in the experiment is T1, sigma receptor (Cavia porcellus, UniProt Q60492).
T1 construct: Crude P2 membrane fractions were prepared from frozen (−80° C.) guinea pig brains (Pel-Freeze, Rogers, AK), minus cerebella; tissue Pel-Freeze, Rogers, AK; host or cells: guinea pig brain minus cerebella, crude synaptosomal (P2) membrane fraction
Briefly: Radioreceptor assay: displacement of [3H](+)-pentazocine from guinea pig brain membranes. As to conditions: apparent Ki from IC50 by Cheng-Prusoff; 3 nM [3H](+)-pentazocine; crude P2 membrane fraction of guinea pig brain; 120 min at 25° C., pH 8.0; read-out: Ki ([3H] (+)-Pent). The class given is binding. In general terms: In a radioligand displacement assay an active substance lowers the binding of a labelled ligand.
Regarding “2-[2-(3,4-Dichlorophenyl) ethyl]-2,5-diazabicyclo[4.0.4]decane [Compound of Ex. 17]”, the Ki was found to be 0.77 nM. For “(R)-2-[2-(3,4-Dichlorophenyl)ethyl]-2,5-diazabicyclo[3.0.4]nonane [Compound of Ex. 12]”, the Ki stood at 3.67 nM. Turning to “(S)-2-[2-(3,4-Dichlorophenyl)ethyl]-2,5-diazabicyclo[3.0.4]nonane [Compound of Ex. 6]”, the Ki was 970 nM.
